In the assay the target is T1, AChE from Electrophorus electricus (Electrophorus electricus, UniProt O42275).
T1 construct: purchased Sigma (St. Louis, MO, USA)
In kind it is biochemical. The protocol:
AChEI activity was measured using Ellman’s method. AChE hydrolyzes the substrate ACTI into acetate and thiocholine. In a neutral and alkaline medium; thiocholine reacts with DTNB to give yellow colored 2-nitro-5-thiobenzoate, which can be detected spectrophotometrically at 405 nm. Briefly, in a 96-well plate, 25 µL of 15 mM ACTI, 125 µL of 3 mM DTNB in buffer B (50 mM Tris HCl, pH = 8, 0.1 M NaCl, 0.02 M MgCl2·6H2O), 50 µL of buffer A (50 mM Tris-HCl, PH 8, 0.1% BSA) and 25 µL of tested sample (dissolved in 25% DMSO) were mixed, and the absorbance was measured using a microplate reader (Biotek, Winooski, VT, USA) at 405 nm every 16 s ten times. Then, 25 µL of AChE (0.25 U/mL in buffer A) was added and the absorbance was measured ten times every 16 s. A solution of 25% DMSO was used as a negative control. Absorbance was plotted against time and enzyme activity was calculated from the slope of the line so obtained and expressed as a percentage compared to an assay using a buffer without any inhibitor. Fractions were tested at 400 µg/mL. To avoid any increase in absorbance due to the color of the compounds or spontaneous hydrolysis of the substrate, the absorbance before addition of the enzyme was subtracted from the absorbance after adding the enzyme. […]

Protein sequences, listed by entry. Tags and fused reporters are not part of them. Residues count along the entry.
UniProt O42275, 24-633: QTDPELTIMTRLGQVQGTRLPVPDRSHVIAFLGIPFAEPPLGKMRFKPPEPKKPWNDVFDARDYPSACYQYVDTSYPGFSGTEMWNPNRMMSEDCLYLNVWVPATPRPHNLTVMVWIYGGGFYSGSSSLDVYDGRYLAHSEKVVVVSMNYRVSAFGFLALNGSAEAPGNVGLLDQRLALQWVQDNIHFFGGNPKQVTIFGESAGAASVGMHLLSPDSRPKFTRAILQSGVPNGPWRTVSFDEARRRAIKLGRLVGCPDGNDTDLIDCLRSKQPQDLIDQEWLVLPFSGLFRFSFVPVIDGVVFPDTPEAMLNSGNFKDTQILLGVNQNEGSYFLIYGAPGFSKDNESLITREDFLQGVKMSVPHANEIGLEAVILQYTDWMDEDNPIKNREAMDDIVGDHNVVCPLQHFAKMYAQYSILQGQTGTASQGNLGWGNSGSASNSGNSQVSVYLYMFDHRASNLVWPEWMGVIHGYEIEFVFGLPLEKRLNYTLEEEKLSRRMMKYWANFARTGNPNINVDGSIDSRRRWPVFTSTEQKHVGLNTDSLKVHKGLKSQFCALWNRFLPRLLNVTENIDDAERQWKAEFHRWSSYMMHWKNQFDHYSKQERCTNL

Read-outs that look alike come from different tables or passages of the source.

As to “kaempferol-3-O-rutinoside [Kaempferol-3-O-rutinoside (14)]”, the IC50 (read-out: AchEI IC50, summary Table 4) amounted to 50.4 ± 0.4 µM and the IC50 (read-out: IC50 in the AChEI assay, Ellman's method) worked out at 50.4 ± 0.4 µM.

Source of the values: paper PMC6272295, “In Vitro Neuroprotective Activities of Compounds from Angelica shikokiana Makino” (Molecules, 2015).
